Results: PMC6965684, “Characterization of binding, functional activity, and contractile responses of the selective 5‐HT1F receptor agonist lasmiditan” (British Journal of Pharmacology, 2019)
Structures can show the parent of a compound that is named as a salt.

By UniProt entry, the sequences of proteins in these tests, tags left out. Where a name states a change or a piece, a line headed by the entry shows the natural chain unless it says otherwise.
UniProt P28566: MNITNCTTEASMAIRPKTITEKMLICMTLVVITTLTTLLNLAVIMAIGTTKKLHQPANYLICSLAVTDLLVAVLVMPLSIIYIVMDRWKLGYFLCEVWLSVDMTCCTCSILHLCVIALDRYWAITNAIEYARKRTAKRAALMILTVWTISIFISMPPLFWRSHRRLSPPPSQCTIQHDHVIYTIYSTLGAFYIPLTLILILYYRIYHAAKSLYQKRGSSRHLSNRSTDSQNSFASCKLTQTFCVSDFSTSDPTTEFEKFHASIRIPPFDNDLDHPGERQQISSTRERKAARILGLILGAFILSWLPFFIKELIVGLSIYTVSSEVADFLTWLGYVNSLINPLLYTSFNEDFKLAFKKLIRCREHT
UniProt P28222, whole entry: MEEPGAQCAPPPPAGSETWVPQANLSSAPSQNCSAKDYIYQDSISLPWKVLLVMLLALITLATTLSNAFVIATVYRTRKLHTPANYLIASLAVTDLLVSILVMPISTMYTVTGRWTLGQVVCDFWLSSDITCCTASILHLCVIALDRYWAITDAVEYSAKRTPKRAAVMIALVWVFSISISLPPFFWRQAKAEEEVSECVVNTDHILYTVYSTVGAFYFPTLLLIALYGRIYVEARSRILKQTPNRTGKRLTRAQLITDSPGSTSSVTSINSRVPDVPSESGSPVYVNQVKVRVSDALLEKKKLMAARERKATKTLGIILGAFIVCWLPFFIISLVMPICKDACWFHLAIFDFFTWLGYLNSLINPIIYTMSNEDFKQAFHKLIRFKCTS

Legend:
[1] = biological target: T1, 5-ht1E receptor (Homo sapiens, UniProt P28566); assay: biochemical; format: CHO-K1 membranes; parameters: radioligand competition binding on cell membranes, filtration and TopCount scintillation counting; conditions: radioligand displacement; read-out: 5‐ht1E / pIC50 (converted)
T1 construct: gene HTR1E; full-length human recombinant receptor in CHO-K1 cells (Ogeda); crude membranes
Description: Competition binding was performed in duplicate in the wells of a 96‐well plate containing binding buffer (optimized for each receptor), cell membrane extracts (approximately 20,000 cells distributed in the 96‐well plate), radiotracer, and test agonist. Non‐specific binding was determined by co‐incubation with 200‐fold excess of competitor. Cells were incubated and exposed to varying concentrations (1 pM to 10 μM) of a range of displacer agonists (see below). The samples were incubated in a final volume of 0.1 ml and then filtered over Unifilter plates (Perkin Elmer, Massachusetts, USA) pretreated for 2 hr to limit tracer non‐specific binding. Filters were washed five times with 0.5 ml of ice‐cold washing buffer (tris 50 mM pH 7.4) and 50 μl of Microscint 20 (Perkin Elmer) were added to each filter. The plates were incubated 15 min at room temperature on an orbital shaker and then counted with a TopCount™ (Perkin Elmer) for 1 min per well. […] Additionally, the reference values obtained were compared to historical values obtained from the same receptor and used to validate the experimental session. […] For the new assays developed in this study (i.e., 5‐ht1E receptor), the two independent pIC50 determined must be concordant with a 1 log unit interval for the assays to be validated. […]

[2] = biological target: T2, 5-HT1B receptor (Homo sapiens, UniProt P28222); assay: cell-based; parameters: species or system CHO-K1; cAMP HTRF agonist assay, Gi coupled receptors, inhibition of stimulated cAMP; conditions: cAMP
T2 construct: gene HTR1B; full-length human recombinant receptor in CHO-K1 cells (Ogeda); crude membranes
Description: Concentration–response curves were performed in parallel with the agonists. […] After addition of the lysis buffer and 1‐hr incubation, cAMP concentrations were estimated according to the manufacturer specification with the HTRF kit (Cisbio International, Codelet, France). In brief, increasing concentrations of agonists were added to stably transfected cells in buffer in an Optiplate (PerkinElmer Life Sciences, Massachusetts, USA). The plates were incubated, and cells were then lysed by the addition of HTRF reagents (cAMP‐Cryptate and anti‐cAMP‐d2 reagents) and diluted in lysis buffer, followed by incubation at room temperature. […] Additionally, the reference values obtained were compared to historical values obtained from the same receptor and used to validate the experimental session. […] For the new assays developed in this study (i.e., 5‐ht1E receptor), the two independent pIC50 determined must be concordant with a 1 log unit interval for the assays to be validated.

[3] = biological target: T1, 5-ht1E receptor; assay: biochemical; format: CHO-K1 membranes; parameters: GTPγS agonist functional assay; conditions: GTPγS
Source text: Additionally, the reference values obtained were compared to historical values obtained from the same receptor and used to validate the experimental session. […] For the new assays developed in this study (i.e., 5‐ht1E receptor), the two independent pIC50 determined must be concordant with a 1 log unit interval for the assays to be validated. […]

[4] = biological target: T1, 5-ht1E receptor; assay: cell-based; parameters: species or system CHO-K1; cAMP HTRF agonist assay, Gi coupled receptors, inhibition of stimulated cAMP; conditions: cAMP
Description: Concentration–response curves were performed in parallel with the agonists. For agonist tests, 12 μl of cells were mixed with 6 μl of the test compound (at increasing concentrations) and 6 μl of https://www.guidetopharmacology.org/GRAC/LigandDisplayForward?ligandId=5190 and then incubated for 30 min at room temperature. After addition of the lysis buffer and 1‐hr incubation, cAMP concentrations were estimated according to the manufacturer specification with the HTRF kit (Cisbio International, Codelet, France). In brief, increasing concentrations of agonists were added to stably transfected cells in buffer in an Optiplate (PerkinElmer Life Sciences, Massachusetts, USA). The plates were incubated, and cells were then lysed by the addition of HTRF reagents (cAMP‐Cryptate and anti‐cAMP‐d2 reagents) and diluted in lysis buffer, followed by incubation at room temperature. As 5‐HT1B receptors have been reported in naïve CHO‐K1 cells (George, Bungay, & Naylor, 1997), we also tested https://www.guidetopharmacology.org/GRAC/LigandDisplayForward?ligandId=4 (5‐CT, the reference agonist for the 5‐HT1B receptor), in CHO‐K1 cells transfected with a non‐5‐HT, GPCR. […] For the new assays developed in this study (i.e., 5‐ht1E receptor), the two independent pIC50 determined must be concordant with a 1 log unit interval for the assays to be validated. […]

[5] = biological target: T2, 5-HT1B receptor; assay: biochemical; format: CHO-K1 membranes; parameters: GTPγS agonist functional assay; conditions: GTPγS
Source text: Additionally, the reference values obtained were compared to historical values obtained from the same receptor and used to validate the experimental session. […] For the new assays developed in this study (i.e., 5‐ht1E receptor), the two independent pIC50 determined must be concordant with a 1 log unit interval for the assays to be validated.

[6] = biological target: T1, 5-ht1E receptor; assay: biochemical; format: CHO-K1 membranes; parameters: radioligand competition binding on cell membranes, filtration and TopCount scintillation counting; conditions: radioligand displacement; read-out: 5‐ht1E / pKi (converted)
Description: (§1) Competition binding was performed in duplicate in the wells of a 96‐well plate containing binding buffer (optimized for each receptor), cell membrane extracts (approximately 20,000 cells distributed in the 96‐well plate), radiotracer, and test agonist. Non‐specific binding was determined by co‐incubation with 200‐fold excess of competitor. Cells were incubated and exposed to varying concentrations (1 pM to 10 μM) of a range of displacer agonists (see below). The samples were incubated in a final volume of 0.1 ml and then filtered over Unifilter plates (Perkin Elmer, Massachusetts, USA) pretreated for 2 hr to limit tracer non‐specific binding. Filters were washed five times with 0.5 ml of ice‐cold washing buffer (tris 50 mM pH 7.4) and 50 μl of Microscint 20 (Perkin Elmer) were added to each filter. The plates were incubated 15 min at room temperature on an orbital shaker and then counted with a TopCount™ (Perkin Elmer) for 1 min per well. […] Additionally, the reference values obtained were compared to historical values obtained from the same receptor and used to validate the experimental session. […] For the new assays developed in this study (i.e., 5‐ht1E receptor), the two independent pIC50 determined must be concordant with a 1 log unit interval for the assays to be validated.

[7] = biological target: T2, 5-HT1B receptor; assay: biochemical; format: CHO-K1 membranes; parameters: radioligand competition binding on cell membranes, filtration and TopCount scintillation counting; conditions: radioligand displacement; for IC50: read-out: 5‐HT1B / pIC50 (converted); for Ki: read-out: 5‐HT1B / pKi (converted)
Description: as §1

| SMILES | IC50 [1] [nM] | EC50 [2] [nM] | EC50 [3] [nM] | EC50 [4] [nM] | EC50 [5] [nM] | Ki [6] [nM] | IC50 [7] [nM] | Ki [7] [nM] |
| --- | --- | --- | --- | --- | --- | --- | --- | --- |
| CN(C)[C@@H]1CCc2[nH]c3ccc(NC(=O)c4ccc(F)cc4)cc3c2C1 [LY344864 hydrochloride] | 891 | > 10000 | 759 | 603 | 1510 | 447 | 741 | 245 |
| CNC1CCc2[nH]c3ccc(C(N)=O)cc3c2C1 (racemic) [Frovatriptan racemate] | – | 10.5 | – | – | 7.24 | – | 8.13 | 2.69 |
